Experimental data published in PubChem BioAssay AID651635 (National Center for Advancing Translational Sciences (NCATS), 2012).
In all, about 400,000 compounds went through this assay and about 1,900 (0.47%) were called active. These results got no clear call from the source, so the numbers are uncertain. The call rests on the fitted dose curve; in most records, active means well fitted cell-killing curve with a large enough effect; inconclusive means small, poorly fitted or top-dose-only effect, or effect the other way; inactive means no such curve, though single readings can be large or run the other way.

Assay: Viability Counterscreen for Primary qHTS for Inhibitors of ATXN expression; further: nearly all actives have a fitted effect of over 40% in size
Settings: S2 cells (HEK-293 line with an ATXN2-luciferase reporter) viability, CellTiter-Fluor protease fluorescence, 24 h; activity change, negative = cytotoxicity: at 56.7 µM (top of the series)
Potency means the concentration at half of the fitted maximal effect.

Row | Structure (SMILES) | activity change, negative = cytotoxicity | Potency
1 | O=[N+]([O-])c1ccc(O)c(/C=N/Nc2ccc([N+](=O)[O-])cc2[N+](=O)[O-])c1 | inconclusive: -85% | 
2 | Cc1cc([N+](=O)[O-])cc([N+](=O)[O-])c1O |  | inconclusive: 39.8 µM
3 | Nc1ccc(CCCCOc2ccccc2)cc1 |  | inconclusive: 25.1 µM
4 | O=P1(N(CCCl)CCCl)OCCC2CCCCN21 (stereo not given) |  | inconclusive: 0.398 µM
5 | CC(=O)Nc1ccc(Oc2c([N+](=O)[O-])cc([N+](=O)[O-])cc2[N+](=O)[O-])cc1 |  | inconclusive: 39.8 µM
6 | CC(=O)c1ccc(N2CC2c2ccncc2)cc1 (stereo not given) |  | inconclusive: 0.0631 µM
7 | N#C/C(=C\c1ccc(N(CCBr)CCBr)cc1)C(N)=O |  | inconclusive: 16.8 µM
8 | CCc1cc(O)c([N+](=O)[O-])c(C)c1[N+](=O)[O-] |  | inconclusive: 5.01 µM
9 | Nc1cc(N)c2nonc2c1[N+](=O)[O-] |  | inconclusive: 18.9 µM
10 | Cc1ccc(OP(=O)(Nc2nccs2)Oc2ccc(C)cc2)cc1 |  | inconclusive: 1.5 µM
11 | CC1CCN(C(=O)Oc2c(Cl)cc(Cl)c3cccnc23)CC1 |  | inconclusive: 5.62 µM
12 | CN(C)C(=O)OCCc1n(C)cc[n+]1C | inconclusive: -44.3% | 
13 | Nc1ccc([As](=O)(O)c2ccc(N)cc2)cc1 |  | inconclusive: 10 µM
14 | O=[N+]([O-])c1cc([N+](=O)[O-])c(CCNc2ccccc2)c([N+](=O)[O-])c1 |  | inconclusive: 18.9 µM
15 | CCC(C)N(CC(C)C)C(=S)SC(NC(C)=O)C(Cl)(Cl)Cl (stereo not given) |  | inconclusive: 44.7 µM
16 | O=C(O)C(=O)c1ccc(N(CCCl)CCCl)cc1 |  | inconclusive: 28.2 µM
17 | O=P(Nc1ccccn1)(c1cccc2ccccc12)c1cccc2ccccc12 |  | inconclusive: 28.2 µM
18 | O=[N+]([O-])c1ccc(Nc2ccc(Oc3ccc([N+](=O)[O-])cc3[N+](=O)[O-])cc2)c([N+](=O)[O-])c1 |  | inconclusive: 0.158 µM
19 | O=[N+]([O-])c1cc([N+](=O)[O-])c(-c2ccn[nH]2)s1 |  | inconclusive: 22.4 µM
20 | COc1ccc(N/C(=N/P(=O)(N2CCOCC2)N2CCOCC2)N2CCOCC2)cc1 |  | inconclusive: 3.16 µM
21 | COc1ccc2nc(NP(=O)(c3ccccc3)c3ccccc3)sc2c1 |  | inconclusive: 39.8 µM
22 | COc1cc(C2NCCC3(OCCO3)C2(C)C)cc(OC)c1OC (stereo not given) |  | inconclusive: 8.91 µM
23 | O=[As](O)(c1cccc(O)c1)c1cccc(O)c1 |  | inconclusive: 0.1 µM
24 | Cc1ccc(S(=O)(=O)N(CCCN)CCCc2c(C)nc(N)[nH]c2=O)cc1 |  | inconclusive: 31.6 µM
25 | Cc1ccc(C(=O)OC2CN3CCC2CC3)cc1 (stereo not given) | inconclusive: -49.6% | 
